Chains of the proteins cited; added tags and fusions are not shown.
UniProt P35222, whole entry: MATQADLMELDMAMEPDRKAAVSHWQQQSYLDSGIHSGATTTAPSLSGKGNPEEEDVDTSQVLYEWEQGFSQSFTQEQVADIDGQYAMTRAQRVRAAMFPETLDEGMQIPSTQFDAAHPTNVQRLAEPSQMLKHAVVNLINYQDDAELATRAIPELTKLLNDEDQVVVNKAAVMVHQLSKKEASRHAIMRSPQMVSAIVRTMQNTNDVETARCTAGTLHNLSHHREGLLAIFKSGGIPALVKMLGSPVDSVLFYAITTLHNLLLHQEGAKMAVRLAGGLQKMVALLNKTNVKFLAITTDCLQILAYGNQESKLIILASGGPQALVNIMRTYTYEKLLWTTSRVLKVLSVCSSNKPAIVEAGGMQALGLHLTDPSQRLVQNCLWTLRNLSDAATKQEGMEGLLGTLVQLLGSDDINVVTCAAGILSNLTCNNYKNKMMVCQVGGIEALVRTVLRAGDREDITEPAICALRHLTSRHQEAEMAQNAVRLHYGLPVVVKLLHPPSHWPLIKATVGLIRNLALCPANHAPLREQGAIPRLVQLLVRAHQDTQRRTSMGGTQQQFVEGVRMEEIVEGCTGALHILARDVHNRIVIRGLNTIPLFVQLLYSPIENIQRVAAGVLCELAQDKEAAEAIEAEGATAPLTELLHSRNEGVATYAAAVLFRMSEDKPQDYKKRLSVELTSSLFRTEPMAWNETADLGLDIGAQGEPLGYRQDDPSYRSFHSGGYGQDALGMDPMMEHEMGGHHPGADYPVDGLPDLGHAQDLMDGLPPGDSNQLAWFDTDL

One experiment deals with beta-catenin/TCF4 interaction (Homo sapiens, UniProt P35222). The experiment is described as follows: cell-based. Also noted: host or cells: HEK293. Conditions: NanoBRET Abs IC50 (uM). Background: Bioluminescence resonance energy transfer reports proximity on the nanometre scale.
On to `CC(=O)N1CCC[C@]12CC=CCCCC1(CCCC=CCCCOC(=O)N3CC[C@@]4(C3)NC(=O)[C@H](CCCCNC(=O)CC[C@@H](C(=O)N[C@@H](C)C(N)=O)NC(=O)[C@H](Cc3csc5ccccc35)NC(=O)[C@H](Cc3ccccc3C(F)(F)F)NC4=O)NC(=O)[C@H](Cc3ccccc3)NC(=O)[C@H](C)NC(=O)[C@H](CC3CCCCC3)NC(=O)[C@H](Cc3cccc(C(=O)O)c3)NC(=O)[C@H](CC(=O)O)NC1=O)NC(=O)[C@H](CC(C)(C)C)NC(=O)[C@H](CC(=O)O)NC2=O` (single isomer, unassigned) [I-102, Ac-PL3-Asp-Npg-B5-Asp-3COOHF-Cha-Ala-Phe-Lys*3-PyrS2-2F3MeF-BztA-GlnR*3-Ala-NH2], for which the IC50 – broadly, the concentration at which inhibition is half-maximal – is 3 to 10 µM.

For the compound `CCCC[C@@H]1NC(=O)[C@]23CCN(C2)C(=O)OCCCC=CCCCC2(CCCC=CC[C@]4(CCCN4C(C)=O)C(=O)N[C@@H](CC(=O)O)C(=O)N[C@@H](CC(C)(C)C)C(=O)N2)C(=O)N[C@@H](CC(=O)O)C(=O)N[C@@H](Cc2cccc(C(=O)O)c2)C(=O)NC(C)(C)C(=O)N[C@@H](C)C(=O)N[C@@H](Cc2ccccc2)C(=O)N[C@@H](CCCCNC(=O)CC[C@@H](C(=O)N[C@@H](C)C(N)=O)NC(=O)[C@H](Cc2csc4ccccc24)NC1=O)C(=O)N3` (single isomer, unassigned) [I-272, Ac-PL3-Asp-Npg-B5-Asp-3COOHF-Aib-Ala-Phe-Lys*3-PyrS2-nLeu-BztA-GlnR*3-Ala-NH2], the IC50 is 1.5 to 3 µM.

In turn, `CC(=O)N1CCC[C@]12CC=CCCCC1(CCCC=CCCCOC(=O)N3CC[C@@]4(C3)NC(=O)[C@H](CCCCNC(=O)CC[C@@H](C(=O)N[C@@H](C)C(N)=O)NC(=O)[C@H](Cc3csc5ccccc35)NC(=O)[C@H](Cc3ccccc3)NC4=O)NC(=O)[C@H](Cc3ccccc3)NC(=O)[C@H](C)NC(=O)C(C)(C)NC(=O)[C@H](Cc3cccc(C(=O)O)c3)NC(=O)[C@H](CC(=O)O)NC1=O)NC(=O)[C@H](CC(C)(C)C)NC(=O)[C@H](CC(=O)O)NC2=O` (single isomer, unassigned) [I-280, Ac-PL3-Asp-Npg-B5-Asp-3COOHF-Aib-Ala-Phe-Lys*3-PyrS2-Phe-BztA-GlnR*3-Ala-NH2] returned an IC50 of 1.5 to 3 µM.

Still in this experiment, the particulars now being: NanoBRET Abs IC50 (uM), absolute IC50.
In turn, `CC(=O)N1CCC[C@]12CC=CCCCC1(CCCC=CCCCOC(=O)N3CC[C@@]4(C3)NC(=O)[C@H](CCCCNC(=O)CC[C@@H](C(=O)N[C@@H](C)C(N)=O)NC(=O)[C@H](Cc3csc5ccccc35)NC(=O)[C@H](Cc3ccsc3)NC4=O)NC(=O)[C@H](Cc3ccccc3)NC(=O)[C@H](C)NC(=O)C3(CCCC3)NC(=O)[C@H](Cc3cccc(C(=O)O)c3)NC(=O)[C@H](CC(=O)O)NC1=O)NC(=O)[C@H](CC(C)(C)C)NC(=O)[C@H](CC(=O)O)NC2=O` (single isomer, unassigned) [I-383, Ac-PL3-Asp-Npg-B5-Asp-3COOHF-CyLeu-Ala-Phe-Lys*3-PyrS2-3Thi-BztA-GlnR*3-Ala-NH2] yielded an IC50 of less than 1.5 µM.

Compound `CC(=O)N1CCC[C@]12CC=CCCCC1(CCCC=CCCCOC(=O)N3CC[C@@]4(C3)NC(=O)[C@H](CCCCNC(=O)CC[C@@H](C(=O)N[C@@H](C)C(N)=O)NC(=O)[C@H](Cc3csc5ccccc35)NC(=O)[C@H](Cc3ccsc3)NC4=O)NC(=O)[C@H](Cc3ccccc3)NC(=O)[C@H](C)NC(=O)C3(CCNCC3)NC(=O)[C@H](Cc3cccc(C(=O)O)c3)NC(=O)[C@H](CC(=O)O)NC1=O)NC(=O)[C@H](CC(C)(C)C)NC(=O)[C@H](CC(=O)O)NC2=O` (single isomer, unassigned) [I-385, Ac-PL3-Asp-Npg-B5-Asp-3COOHF-Acp-Ala-Phe-Lys*3-PyrS2-3Thi-BztA-GlnR*3-Ala-NH2] yielded an IC50 greater than 10 µM.

In turn, `CC(=O)N1CCC[C@]12CC=CCCCC1(CCCC=CCCCOC(=O)N3CC[C@@]4(C3)NC(=O)[C@H](CCCCNC(=O)CC[C@@H](C(=O)N[C@H](C(=O)NC(C)(C)C(N)=O)C(C)C)NC(=O)[C@H](Cc3csc5ccccc35)NC(=O)[C@H](Cc3ccsc3)NC4=O)NC(=O)[C@H](Cc3ccccc3)NC(=O)[C@H](C)NC(=O)C(C)(C)NC(=O)[C@H](Cc3cccc(C(=O)O)c3)NC(=O)[C@H](CC(=O)O)NC1=O)NC(=O)[C@H](CC(C)(C)C)NC(=O)[C@H](CC(=O)O)NC2=O` (single isomer, unassigned) [I-408, Ac-PL3-Asp-Npg-B5-Asp-3COOHF-Aib-Ala-Phe-Lys*3-PyrS2-3Thi-BztA-GlnR*3-Val-Aib-NH2] showed an IC50 of less than 1.5 µM.

As for `CC(=O)N1CCC[C@]12CC=CCCCC1(CCCC=CCCCOC(=O)N3CC[C@@]4(C3)NC(=O)[C@H](CCCCNC(=O)CC[C@@H](C(=O)N[C@H](C(=O)NC(C)(C)C(N)=O)[C@@H](C)O)NC(=O)[C@H](Cc3csc5ccccc35)NC(=O)[C@H](Cc3ccsc3)NC4=O)NC(=O)[C@H](Cc3ccccc3)NC(=O)[C@H](C)NC(=O)C(C)(C)NC(=O)[C@H](Cc3cccc(C(=O)O)c3)NC(=O)[C@H](CC(=O)O)NC1=O)NC(=O)[C@H](CC(C)(C)C)NC(=O)[C@H](CC(=O)O)NC2=O` (single isomer, unassigned) [I-412, Ac-PL3-Asp-Npg-B5-Asp-3COOHF-Aib-Ala-Phe-Lys*3-PyrS2-3Thi-BztA-GlnR*3-Thr-Aib-NH2], the IC50 was less than 1.5 µM.

For the compound `CC(=O)N1CCC[C@]12CC=CCCCC1(CCCC=CCCCOC(=O)N3CC[C@@]4(C3)NC(=O)[C@H](CCCCn3cc(nn3)CC[C@@H](C(=O)N[C@@H](C)C(N)=O)NC(=O)[C@H](Cc3csc5ccccc35)NC(=O)[C@H](Cc3ccccc3)NC4=O)NC(=O)[C@H](Cc3ccccc3)NC(=O)[C@H](C)NC(=O)C(C)(C)NC(=O)[C@H](Cc3cccc(C(=O)O)c3)NC(=O)[C@H](CC(=O)O)NC1=O)NC(=O)[C@H](CC(C)(C)C)NC(=O)[C@H](CC(=O)O)NC2=O` (single isomer, unassigned) [I-420, Ac-PL3-Asp-Npg-B5-Asp-3COOHF-Aib-Ala-Phe-TriAzLys*3-PyrS2-Phe-BztA-sAbu*3-Ala-NH2], the IC50 lay within 1.5 to 3 µM.

`CC(=O)N1CCC[C@]12CC=CCCCC1(CCCC=CCCCOC(=O)N3CC[C@@]4(C3)NC(=O)[C@H](CCCCNC(=O)CC[C@@H](C(=O)N[C@@H](C)C(N)=O)NC(=O)[C@H](Cc3csc5ccccc35)NC(=O)[C@H](Cc3ccsc3)NC4=O)NC(=O)[C@H](Cc3ccccc3)NC(=O)[C@H](C)NC(=O)[C@@](C)(CO)NC(=O)[C@H](Cc3cccc(C(=O)O)c3)NC(=O)[C@H](CC(=O)O)NC1=O)NC(=O)[C@H](CC(C)(C)C)NC(=O)[C@H](CC(=O)O)NC2=O` (single isomer, unassigned) [I-437, Ac-PL3-Asp-Npg-B5-Asp-3COOHF-DaMeS-Ala-Phe-Lys*3-PyrS2-3Thi-BztA-GlnR*3-Ala-NH2] returned an IC50 greater than 10 µM.

The compound `CC(=O)N1CCC[C@]12CC=CCCCC1(CCCC=CCCCOC(=O)N3CC[C@@]4(C3)NC(=O)[C@H](CCCCNC(=O)CC[C@@H](C(=O)N[C@@H](C)C(N)=O)NC(=O)[C@H](Cc3csc5ccccc35)NC(=O)[C@H](Cc3ccsc3)NC4=O)NC(=O)[C@H](Cc3ccccc3)NC(=O)[C@H](C)NC(=O)[C@@](C)(Cc3ccccc3)NC(=O)[C@H](Cc3cccc(C(=O)O)c3)NC(=O)[C@H](CC(=O)O)NC1=O)NC(=O)[C@H](CC(C)(C)C)NC(=O)[C@H](CC(=O)O)NC2=O` (single isomer, unassigned) [I-457, Ac-PL3-Asp-Npg-B5-Asp-3COOHF-aMeDF-Ala-Phe-Lys*3-PyrS2-3Thi-BztA-GlnR*3-Ala-NH2] displayed an IC50 of 3 to 10 µM.

`CC(=O)N1CCC[C@]12CC=CCCCC1(CCCC=CCCCOC(=O)N3CC[C@@]4(C3)NC(=O)[C@H](CCCCNC(=O)CC[C@@H](C(=O)N[C@H](C)C(=O)N[C@@H](CO)C(N)=O)NC(=O)[C@H](Cc3csc5ccccc35)NC(=O)[C@H](Cc3ccsc3)NC4=O)NC(=O)[C@H](Cc3ccccc3)NC(=O)[C@H](C)NC(=O)C(C)(C)NC(=O)[C@H](Cc3cccc(C(=O)O)c3)NC(=O)[C@H](CC(=O)O)NC1=O)NC(=O)[C@H](CC(C)(C)C)NC(=O)[C@H](CC(=O)O)NC2=O` (single isomer, unassigned) [I-461, Ac-PL3-Asp-Npg-B5-Asp-3COOHF-Aib-Ala-Phe-Lys*3-PyrS2-3Thi-BztA-GlnR*3-dAla-Ser-NH2] displayed an IC50 of 3 to 10 µM.

Regarding `CC(=O)N1CCC[C@]12CC=CCCCC1(CCCC=CCCCOC(=O)N3CC[C@@]4(C3)NC(=O)[C@H](CCCCNC(=O)CC[C@@H](C(=O)N[C@H](CC(C)C)C(=O)N[C@@H](CO)C(=O)N[C@@H](CC(C)C)C(N)=O)NC(=O)[C@H](Cc3csc5ccccc35)NC(=O)[C@H](Cc3ccsc3)NC4=O)NC(=O)[C@H](Cc3ccccc3)NC(=O)[C@H](C)NC(=O)C(C)(C)NC(=O)[C@H](Cc3cccc(C(=O)O)c3)NC(=O)[C@H](CC(=O)O)NC1=O)NC(=O)[C@H](CC(C)(C)C)NC(=O)[C@H](CC(=O)O)NC2=O` (single isomer, unassigned) [I-468, Ac-PL3-Asp-Npg-B5-Asp-3COOHF-Aib-Ala-Phe-Lys*3-PyrS2-3Thi-BztA-GlnR*3-dLeu-Ser-Leu-NH2], the IC50 is 3 to 10 µM.

Take `CCCC[C@@H]1NC(=O)[C@H](C)NC(=O)C(C)(C)NC(=O)[C@H](Cc2cccc(C(=O)O)c2)NC(=O)[C@H](CC(=O)O)NC(=O)C2(CCCC=CCCCOC(=O)N3CC[C@@]4(C3)NC(=O)[C@H](CCCCNC(=O)CC[C@@H](C(=O)N[C@@H](C)C(N)=O)NC(=O)[C@H](Cc3ccc(Cl)c(Cl)c3)NC(=O)[C@H](Cc3ccccc3)NC4=O)NC1=O)CCCC=CC[C@]1(CCCN1C(C)=O)C(=O)N[C@@H](CC(=O)O)C(=O)N[C@@H](CC(C)(C)C)C(=O)N2` (single isomer, unassigned) [I-480, Ac-PL3-Asp-Npg-B5-Asp-3COOHF-Aib-Ala-nLeu-Lys*3-PyrS2-Phe-34ClF-GlnR*3-Ala-NH2]: the IC50 is greater than 10 µM.

Consider `CC(=O)N1CCC[C@]12CC=CCCCC1(CCCC=CCCCOC(=O)N3CC[C@@]4(C3)NC(=O)[C@H](CCCCNC(=O)CC[C@@H](C(=O)N[C@@H](C)C(N)=O)NC(=O)[C@H](Cc3ccc5ccccc5c3)NC(=O)[C@H](Cc3ccccc3)NC4=O)NC(=O)[C@H](Cc3ccccc3)NC(=O)[C@H](C)NC(=O)C(C)(C)NC(=O)[C@H](Cc3cccc(C(=O)O)c3)NC(=O)[C@H](CC(=O)O)NC1=O)NC(=O)[C@H](CC(C)(C)C)NC(=O)[C@H](CC(=O)O)NC2=O` (single isomer, unassigned) [I-484, Ac-PL3-Asp-Npg-B5-Asp-3COOHF-Aib-Ala-Phe-Lys*3-PyrS2-Phe-2NapA-GlnR*3-Ala-NH2], for which the IC50 was greater than 10 µM.

Source of the values: patent US20240360179A1, “STAPLED PEPTIDES AND METHODS THEREOF” (FOG PHARMACEUTICALS, INC., priority 2021, published 2024).
